Target: Phosphatidylinositol 4,5-bisphosphate 3-kinase catalytic subunit gamma isoform (Homo sapiens, UniProt P48736)
Assay: biochemical

Amino acid sequences for entries named in this document (tags omitted). A change or cut given only in a name is not applied to a line headed by its entry.
UniProt P48736: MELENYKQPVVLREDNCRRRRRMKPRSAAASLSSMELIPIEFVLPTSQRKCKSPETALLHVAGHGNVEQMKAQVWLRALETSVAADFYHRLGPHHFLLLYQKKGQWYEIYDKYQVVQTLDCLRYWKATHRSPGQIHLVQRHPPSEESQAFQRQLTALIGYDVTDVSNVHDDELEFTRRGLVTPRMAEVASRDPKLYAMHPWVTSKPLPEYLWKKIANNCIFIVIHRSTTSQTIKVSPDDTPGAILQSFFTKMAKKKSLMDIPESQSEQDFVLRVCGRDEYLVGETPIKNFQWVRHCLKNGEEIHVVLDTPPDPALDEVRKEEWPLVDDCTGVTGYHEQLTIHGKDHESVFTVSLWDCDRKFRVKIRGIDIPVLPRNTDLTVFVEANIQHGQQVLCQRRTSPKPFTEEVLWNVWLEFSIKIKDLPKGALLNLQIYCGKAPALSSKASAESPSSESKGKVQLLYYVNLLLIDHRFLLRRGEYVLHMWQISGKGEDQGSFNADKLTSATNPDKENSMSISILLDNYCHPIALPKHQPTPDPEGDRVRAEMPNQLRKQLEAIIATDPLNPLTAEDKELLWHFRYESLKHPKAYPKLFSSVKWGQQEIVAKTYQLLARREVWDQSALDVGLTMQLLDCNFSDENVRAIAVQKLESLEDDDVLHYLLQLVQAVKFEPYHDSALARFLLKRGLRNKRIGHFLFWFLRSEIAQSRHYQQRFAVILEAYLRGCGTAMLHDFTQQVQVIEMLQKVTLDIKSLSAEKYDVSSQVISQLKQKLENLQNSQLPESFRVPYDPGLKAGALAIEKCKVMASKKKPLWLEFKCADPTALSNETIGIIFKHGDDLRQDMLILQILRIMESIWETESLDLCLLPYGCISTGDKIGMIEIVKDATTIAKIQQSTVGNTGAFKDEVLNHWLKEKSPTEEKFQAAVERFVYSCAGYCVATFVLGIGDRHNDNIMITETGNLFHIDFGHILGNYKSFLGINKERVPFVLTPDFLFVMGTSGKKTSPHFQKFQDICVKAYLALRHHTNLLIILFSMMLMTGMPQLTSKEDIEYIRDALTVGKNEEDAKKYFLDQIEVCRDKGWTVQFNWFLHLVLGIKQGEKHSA

Question: Which IC50 does the source give for `C[C@H](NC(=O)c1c(N)nn2cccnc12)c1cc2cccc(Cl)c2c(=O)n1-c1ccccc1` here?
Answer: 40 nM

Reference: ChEMBL document CHEMBL3853350, “Discovery of a Selective Phosphoinositide-3-Kinase (PI3K)-γ Inhibitor (IPI-549) as an Immuno-Oncology Clinical Candidate” (ACS Med Chem Lett, 2016)
